{
  "sequences": {"note": "By UniProt entry, the sequences of proteins in these tests, tags left out.", "UniProt Q01959, whole entry": "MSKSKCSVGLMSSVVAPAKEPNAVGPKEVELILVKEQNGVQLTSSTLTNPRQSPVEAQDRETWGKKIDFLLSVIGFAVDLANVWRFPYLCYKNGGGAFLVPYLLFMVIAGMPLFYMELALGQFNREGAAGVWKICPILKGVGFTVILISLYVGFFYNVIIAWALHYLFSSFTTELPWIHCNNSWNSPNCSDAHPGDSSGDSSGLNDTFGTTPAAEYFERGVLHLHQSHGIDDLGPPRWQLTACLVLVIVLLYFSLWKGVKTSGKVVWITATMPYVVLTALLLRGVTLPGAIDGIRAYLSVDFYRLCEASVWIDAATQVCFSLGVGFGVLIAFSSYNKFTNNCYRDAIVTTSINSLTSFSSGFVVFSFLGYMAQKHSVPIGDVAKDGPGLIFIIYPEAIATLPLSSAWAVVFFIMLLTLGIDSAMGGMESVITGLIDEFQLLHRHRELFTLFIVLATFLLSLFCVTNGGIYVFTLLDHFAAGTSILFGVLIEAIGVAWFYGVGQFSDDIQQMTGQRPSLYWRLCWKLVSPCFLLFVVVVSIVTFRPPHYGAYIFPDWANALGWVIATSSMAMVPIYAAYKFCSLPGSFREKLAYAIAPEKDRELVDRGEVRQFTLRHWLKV"},
  "source": "PubChem BioAssay AID449768",
  "about": "(Vanderbilt High Throughput Screening Facility, 2010)",
  "note": "Only a part is listed here, and it is no random draw. The source made the active and inactive calls.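 The calls were made as follows: active = Z score or B-score, a plate-position-corrected score, falls beyond the plate's 99.7% confidence bounds, in either direction; inactive = both scores lie inside the 99.7% bounds.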",
  "data": [
    {"biological_target": "Sodium-dependent dopamine transporter (Homo sapiens) (UniProt Q01959)", "experiment": "changed hDAT dopamine uptake under cocaine IC80, either direction, primary screen, cocaine antagonist project, cell-based, LLC-PK1 hDAT, [14C]-dopamine uptake, MLSMR (AID 449768);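 also: scored against the spread of the other compound wells on the same plate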", "details": "LLC-PK1 hDAT cells, [14C]-dopamine uptake with cocaine IC80; at 10 µM; actives deviate in either direction", "values": [
      {"smiles": "CN1CCC(Nc2cccc(F)c2)CC1", "B-score": "inactive: 2.2"},
      {"smiles": "N#CC1(Nc2ccccc2)CCN(CCc2ccccc2)CC1", "B-score": "inactive: -0.485"},
      {"smiles": "O=C(NCC1(N2CCOCC2)CCCCC1)c1cc(=O)[nH]c2ccccc12", "B-score": "inactive: -0.000505"},
      {"smiles": "COc1ccc(NC2CCN(CCc3ccccc3)CC2)c(OC)c1", "B-score": "inactive: 1.83"},
      {"smiles": "O=C(NCC1(N2CCOCC2)CCCCC1)c1cc2ccccc2o1", "B-score": "inactive: 0.868"},
      {"smiles": "O=C(OC1CN2CCC1CC2)C1c2ccccc2Oc2ccccc21", "note": "(stereo not given)", "B-score": "inactive: 1.31"},
      {"smiles": "CCOc1ncccc1C(=O)NCC1(N2CCOCC2)CCCCC1", "B-score": "inactive: -0.00841"},
      {"smiles": "CCC(CO)(C(=O)OC1CN2CCC1CC2)c1ccccc1", "note": "(stereo not given)", "B-score": "inactive: -0.833"},
      {"smiles": "Fc1ccccc1NC1CCN(Cc2ccccc2)CC1", "B-score": "inactive: 0.652"},
      {"smiles": "c1ccc(CN2CCC(Nc3ccccc3)CC2)cc1", "B-score": "inactive: -1.21"}
    ]}
  ]
}
